This passage reports Ki results from patent publication US9090589B2, “Specific nNOS inhibitors for the therapy and prevention of human melanoma” (priority 2011, dated 2015).

The test addresses nNOS (Rattus norvegicus (Rat), UniProt P29476). Nature of the test: biochemical. It is filed as biochemical. Particulars: recombinant isozyme.

SMILES strings stand for the structures.

For orientation: Ki means the equilibrium dissociation constant of an inhibitor or competing ligand from its target. As to `Cc1cc(N)nc(C[C@H]2CNC[C@@H]2NCCNCCc2ccccc2)c1` [Compound 4, N^1-((3R,4S)-4-((6-amino-4-methylpyridin-2-yl)methyl)pyrrolidin-3-yl)-N^2-phenethylethane-1,2-diamine], the Ki was 880 nM.

As for `Cc1cc(N)nc(C[C@H]2CNC[C@H]2NCCNCCc2ccccc2)c1` [Compound 7, N^1-((3S,4S)-4-((6-amino-4-methylpyridin-2-yl)methyl)pyrrolidin-3-yl)-N^2-phenethylethane-1,2-diamine], the Ki was 24 nM.
